Values quoted from earlier work as cited in patent US6979727B2, “Recombinant conglutinin and producing method thereof” (Fuso Pharmaceutical Industries, Ltd., priority 1995, dated 2005).

Target: T1, Native Conglutinin (Bos taurus, UniProt P23805, K210S)
T1 sequence (P23805 21-371 K210S): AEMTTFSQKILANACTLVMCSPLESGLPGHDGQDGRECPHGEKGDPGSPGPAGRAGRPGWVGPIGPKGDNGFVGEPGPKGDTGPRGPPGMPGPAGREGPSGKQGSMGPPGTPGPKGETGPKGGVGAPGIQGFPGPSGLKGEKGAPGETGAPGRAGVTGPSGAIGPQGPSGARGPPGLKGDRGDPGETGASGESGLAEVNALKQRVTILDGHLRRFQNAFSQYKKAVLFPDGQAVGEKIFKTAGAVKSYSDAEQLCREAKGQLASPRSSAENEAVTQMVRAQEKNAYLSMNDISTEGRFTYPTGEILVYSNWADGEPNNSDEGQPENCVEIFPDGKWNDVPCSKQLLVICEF
Settings: cited from earlier work

[1] = read-out: I50, sugar concentration to halve binding activity with mannan, Lu, J. et al., Biochem. J., vol. 284, pp. 795-802 (1992)
[2] = Lu, J. et al., Biochem. J., vol. 284, pp. 795-802 (1992), read-out: I50, sugar concentration to halve binding activity with mannan

Row | SMILES | IC50 [1] | IC50 [2]
1 | O=C[C@@H](O)[C@@H](O)[C@H](O)[C@H](O)CO [D-Mannose] | 19.5 mM | –
2 | C[C@H](O)[C@@H](O)[C@@H](O)[C@H](O)C=O [Fucose] | – | 41.5 mM
3 | O=C[C@H](O)[C@@H](O)[C@@H](O)[C@H](O)CO [Galactose] | > 100 mM | –
4 | OC[C@H]1O[C@H](O[C@H]2[C@H](O)[C@@H](O)[C@H](O)O[C@@H]2CO)[C@H](O)[C@@H](O)[C@@H]1O [Maltose] | – | 49 mM
5 | CC(=O)N[C@H]1C(O)O[C@H](CO)[C@@H](O)[C@@H]1O (stereo partly drawn) [N-Acetyl-D-Glucosamine] | – | 1.4 mM

Like-named read-outs stand apart in the source and are kept apart here.
